Test system: houseflies (Musca domestica)
Assay: Biological Test 16: topical application of compound (1) with piperonyl butoxide, mortality
Format: in vivo
Settings: compound (1) 0.5 + piperonyl butoxide 1.0 μg/female; after 24 hours
Protocol: The combination rate of piperonyl butoxide to the present compound was 0, 2, 4, 8 and 16 times. The mixture was dissolved in acetone. The acetone solution (0.5 μL) was applied to 10 female houseflies (Musca domestica) at the back thoracic region. After 24 hours, the number of dead insects was observed (2 repetition) and mortality was calculated.

Q: Which “Mortality (%)” value does the source give for `Cc1ccc(COC(=O)[C@@H]2[C@H](/C=C(\Cl)C(F)(F)F)C2(C)C)o1` (relative stereo) [Compound (1), 5-methyl-2-furfuryl (1RS,cis)-3-(Z-2-chloro-3,3,3-trifluoroprop-1-enyl)-2,2-dimethylcyclopropanecarboxylate] here?
A: 95%
